For one compound, Ratio Ki results are on record in ChEMBL document CHEMBL1156775 (J Med Chem, 2010).

The species named for experiment [1] is Homo sapiens. Briefly: Selectivity ratio of Ki for human kappa opioid receptor to Ki for human mu opioid receptor.
The species named for experiment [2] is Homo sapiens. Description: Selectivity ratio of Ki for human delta opioid receptor to Ki for human mu opioid receptor.

Take `Ic1ccc(CNc2ccc3c(c2)[C@@]24CCCC[C@H]2[C@@H](C3)N(CC2CC2)CC4)cc1`: the Ratio Ki came out at 1.1 in the experiment filed under Homo sapiens [1] and 48 in the experiment listed under Homo sapiens [2].
